Assay results as given in US20070015913A1, “Mrp3 genes and uses thereof” (published 2007).

System: MCF-7 cells stably transfected with MRP3s1/Bsd
Assay: MTS/MTT assays of drug resistance of MCF-7 cells stably transfected with MRP3s1 expression vector
Conditions: MRP3s1/Bsd-transfected MCF-7 clone vs MCF-7 cells stably transfected with empty pcDNA/Bsd control vector

4-hydroxycyclophosphamide
resistance of MRP3s1-expressing clone relative to control: 3-4 times
